Data published in paper PMC7821381, “Multi-Targeted Anticancer Activity of Imidazolate Phosphane Gold(I) Compounds by Inhibition of DHFR and TrxR in Breast Cancer Cells” (Frontiers in Chemistry, 2021).

Tested on: SKBR3 cells
Assay: MTT cell viability assay on SKBR3 cells
Type: cell-based, human
Conditions: 72 h (Figure 1S) and 48 h (Figure 2)
Excerpt: Human MDA-MB-231 (ER–/PR–/HER2–) and SK-BR-3 (ER–/PR–/HER2+) cells were obtained from American Type Culture Collection (Rockville, MD) and cultured in Dulbecco's Modified Essential Medium (DMEM, Gibco, Life Technologies) supplemented with 10% fetal bovine serum (FBS, Gibco, Life Technologies) and 1% penicillin–streptomycin (Gibco, Life Technologies). A17 cells were established from a spontaneous lobular carcinoma that arose in an FVB/neuT mouse (Galiè et al., [2005]), and maintained in DMEM plus 20% FBS and 1% penicillin-streptomycin. Cells were cultured at 37°C under humidified atmosphere with 5% CO2.
Stock solutions were prepared for each gold(I) compound (50 mM) using dimethyl sulfoxide (DMSO) (Sigma-Aldrich) as solvent. The effects of gold(I) compounds on SKBR3, A17 and MDA-MB231 cells viability were evaluated by seeding, respectively, 10, ^*10^3, 2.5 ^*10^3, 7, ^*10^3 cells/well in 96 wells plates in complete medium (DMEM supplemented with FBS) and compared to those of cisplatin. […] Cell viability was determined using a MTT [3-(4,5-dimethylthiazol-2-yl)-2,5-diphenyl-2H-tetrazolium bromide Sigma Aldrich, St. Louis, MO] assay, which is based on the conversion of MTT to formazan crystals by mitochondrial enzymes, after 24, 48, and 72 h. The formazan deposits were dissolved in DMSO and the absorbance of each well was measured at 540 nm in Multiskan Ascent 96/384 Plate Reader. […]

“(4-hydroxy-methyl)imidazolyl-1H-gold(I)-(2-benzoic-diphenylphosphane acid) [Compound 3]” was tested, and the “cytotoxic activity in MTT screening” value was “did not show relevant cytotoxic activity”.
